Patent US20120149631A1 (priority 2009, published 2012)

System: horse erythrocytes
Assay: Hemolysis assay
Format: cell-based
Details: 2% horse erythrocytes, 1 h

Compound | hemolysis (100 ug/ml peptide) [%] | hemolysis (1000 ug/ml peptide) [%]
CC(C)C[C@H](NC(=O)[C@H](CCCCN)NC(=O)[C@H](CCCCN)NC(=O)[C@H](Cc1ccccc1)NC(=O)[C@H](Cc1ccccc1)NC(=O)[C@H](CCCCN)NC(=O)[C@H](CCCCN)NC(=O)[C@H](C)NC(=O)[C@H](CCCNC(=N)N)NC(=O)[C@@H](N)CCCCN)C(=O)N[C@@H](CCCCN)C(N)=O [ATRA-1A] | 1.1 | 3.5
N=C(N)NCCC[C@H](NC(=O)[C@@H](N)CCCCN)C(=O)N[C@@H](Cc1ccccc1)C(=O)N[C@@H](CCCCN)C(=O)N[C@@H](CCCCN)C(=O)N[C@@H](Cc1ccccc1)C(=O)N[C@@H](Cc1ccccc1)C(=O)N[C@@H](CCCCN)C(=O)N[C@@H](CCCCN)C(=O)N1CCC[C@H]1C(=O)N[C@@H](CCCCN)C(N)=O [ATRA-1P] | 1.9 | 
